{"source": "patent US10550114B2", "about": "“Kinase inhibitors and their use in cancer therapy” (TECHNISCHE UNIVERSITÄT DORTMUND, priority 2015, dated 2020)", "key": {"remaining 97 kinases": {"test_system": "remaining 97 kinases", "details": "1 μM compound, apparent ATP KM"}, "GIST-T1 cells": {"test_system": "GIST-T1 cells", "assay": "Western blot in gastrointestinal stromal tumor cells", "assay_type": "cell-based, human", "details": "GIST-T1, 24 hours", "description": "For GIST-T1 cells protein lysates were prepared from cell line monolayers according to standard protocols as described in A. Duensing, F. Medeiros, B. McConarty, N. E. Joseph, D. Panigrahy, S. Singer, C. D. Fletcher, G. D. Demetri, J. A. Fletcher, Oncogene 2004, 23, 3999-4006. Protein concentrations were determined with the Bio-Rad Protein Assay (Bio-Rad Laboratories, Hercules, Calif.). Electrophoresis and immunoblotting were carried out as described in B. P. Rubin, S. Singer, C. Tsao, A. Duensing, M. L. Lux, R. Ruiz, M. K. Hibbard, C. J. Chen, S. Xiao, D. A. Tuveson, G. D. Demetri, C. D. Fletcher, J. A. Fletcher, Cancer Res. 2001, 61, 8118-8121. Changes in protein expression and phosphorylation as visualized by chemiluminescence were captured and quantified using a FUJI LAS3000 system with Science Lab 2001 ImageGauge 4.0 software (Fujifilm Medial Systems, Stamford Conn., USA).\nControls were treated with dimethyl sulfoxide (DMSO)."}}}
{"compound": "C=CC(=O)Nc1ccc2[nH]c(=O)n(C3CCN(Cc4ccc(-c5nc6cc[nH]c(=O)c6cc5-c5ccccc5)cc4)CC3)c2c1", "note": "[Compound 1a, N-(2-oxo-3-(1-(4-(5-oxo-3-phenyl-5,6-dihydro-1,6-naphthyridin-2-yl)benzyl)piperidin-4-yl)-2,3-dihydro-1H-benzo[d]imidazol-5-yl) acrylamide]", "values": [{"measurement": "% inhibition remaining 97 kinases", "setting": "remaining 97 kinases", "value": "less than 40%"}, {"measurement": "phosphorylation of c-KIT and MAPK (Erk1/2)", "setting": "GIST-T1 cells", "value": "not affected"}]}
